Tested on: CRT and/or ERp57
Assay: Immunofluorescence staining of unfixed human tumour cell lines for surface CRT and/or ERp57

| Compound | exposure of CRT and/or ERp57 on the surface of human tumour cell lines |
| --- | --- |
| COc1cccc2c1C(=O)c1c(O)c3c(c(O)c1C2=O)C[C@@](O)(C(C)=O)C[C@@H]3O[C@H]1C[C@H](N)[C@H](O)[C@H](C)O1 [daunorubicin] | Very similar results |
| COc1cccc2c1C(=O)c1c(O)c3c(c(O)c1C2=O)C[C@@](O)(C(=O)CO)C[C@@H]3O[C@H]1C[C@H](N)[C@H](O)[C@H](C)O1 [doxorubicin] | Very similar results |
| O=C1c2c(O)ccc(O)c2C(=O)c2c(NCCNCCO)ccc(NCCNCCO)c21 [mitoxantrone] | expose CRT and/or ERp57 on the surface of their cells |
| CC(=O)[C@]1(O)Cc2c(O)c3c(c(O)c2[C@@H](O[C@H]2C[C@H](N)[C@H](O)[C@H](C)O2)C1)C(=O)c1ccccc1C3=O [idarubicin] | Very similar results |

From patent US8129340B2, “Inhibitors of protein phosphatase 1, GADD34 and protein phosphatase 1/GADD34 complex, preparation and uses thereof” (Institut Gustave Roussy, priority 2006, dated 2012)
